Laboratory results reported in article PMC8624105 (Viruses, 2021).

Key:
Assay in all cases: holdup assay
Type in all cases: binding, human
MAGI3 PDZ5 = settings: PDZ about 4 μM; two independent experiments
PTPN4 PDZ1 = settings: PDZ about 4 μM; two independent experiments
FRMPD3 PDZ1 = settings: PDZ about 4 μM; two independent experiments
NHERF3 PDZ2 = settings: PDZ about 4 μM; two independent experiments
MAGI3 PDZ3 = settings: PDZ about 4 μM; two independent experiments
LMO7 PDZ1 = settings: PDZ about 4 μM; two independent experiments
InaDl PDZ5 = settings: PDZ about 4 μM; two independent experiments
PSCDBP PDZ1 = settings: PDZ about 4 μM; two independent experiments
AHNAK1 PDZ1 = settings: PDZ about 4 μM; sd not given
RADIL PDZ1 = settings: PDZ about 4 μM; two independent experiments
PDZD7 PDZ1 = settings: PDZ about 4 μM; two independent experiments
InaDl PDZ7 = settings: PDZ about 4 μM; two independent experiments
MPDZ PDZ4 = settings: PDZ about 4 μM; two independent experiments
LNX2 PDZ2 = settings: PDZ about 4 μM; two independent experiments
PARD3B PDZ3 = settings: PDZ about 4 μM; two independent experiments
RIMS2 PDZ1 = settings: PDZ about 4 μM; two independent experiments
SCRIB PDZ4 = settings: PDZ about 4 μM; two independent experiments
PTPN13 PDZ3 = settings: PDZ about 4 μM; two independent experiments
PTPN13 PDZ1 = settings: PDZ about 4 μM; two independent experiments
NHERF4 PDZ3 = settings: PDZ about 4 μM; two independent experiments
FRMPD2 PDZ1 = settings: PDZ about 4 μM; two independent experiments
PDZD7 PDZ2 = settings: PDZ about 4 μM; two independent experiments
MPP5 PDZ1 = settings: PDZ about 4 μM; two independent experiments
MPDZ PDZ13 = settings: PDZ about 4 μM; two independent experiments
PDLIM4 PDZ1 = settings: PDZ about 4 μM; two independent experiments
MAGI1 PDZ3 = settings: PDZ about 4 μM; two independent experiments
MPP3 PDZ1 = settings: PDZ about 4 μM; two independent experiments
IL16 PDZ3 = settings: PDZ about 4 μM; two independent experiments
GRIP2 PDZ7 = settings: PDZ about 4 μM; two independent experiments
AHNAK2 PDZ1 = settings: PDZ about 4 μM; sd not given
LIN7A PDZ1 = settings: PDZ about 4 μM; two independent experiments
PREX1 PDZ2 = settings: PDZ about 4 μM; two independent experiments
MPDZ PDZ11 = settings: PDZ about 4 μM; two independent experiments
PARD6G PDZ1 = settings: PDZ about 4 μM; two independent experiments
PDZD7 PDZ3 = settings: PDZ about 4 μM; two independent experiments
SYNJ2BP PDZ1 = settings: PDZ about 4 μM; two independent experiments
InaDl PDZ3 = settings: PDZ about 4 μM; two independent experiments
RAPGEF6 PDZ1 = settings: PDZ about 4 μM; two independent experiments
MAGIX PDZ1 = settings: PDZ about 4 μM; two independent experiments
LNX1 PDZ1 = settings: PDZ about 4 μM; two independent experiments
MPDZ PDZ1 0 = settings: PDZ about 4 μM; two independent experiments
GRIP1 PDZ2 = settings: PDZ about 4 μM; two independent experiments
GRIP1 PDZ5 = settings: PDZ about 4 μM; two independent experiments
MPP1 PDZ1 = settings: PDZ about 4 μM; two independent experiments
DLG1 PDZ3 = settings: PDZ about 4 μM; two independent experiments
TIAM1 PDZ1 = settings: PDZ about 4 μM; two independent experiments
SDCBP PDZ2 = settings: PDZ about 4 μM; two independent experiments
IL16 PDZ2 = settings: PDZ about 4 μM; two independent experiments
APBA3 PDZ2 = settings: PDZ about 4 μM; sd not given
NHERF4 PDZ4 = settings: PDZ about 4 μM; two independent experiments
TJP2 PDZ2 = settings: PDZ about 4 μM; two independent experiments

Substance: Biotin-(PEG3)-GFQNTDDVQTSF [ACE2 PBM peptide]
- BI (binding intensity) (MAGI3 PDZ5): 0.14
- BI (binding intensity) (PTPN4 PDZ1): 0.13
- BI (binding intensity) (FRMPD3 PDZ1): 0.07
- BI (binding intensity) (NHERF3 PDZ2): 0.05
- BI (binding intensity) (MAGI3 PDZ3): 0.03
- BI (binding intensity) (LMO7 PDZ1): 0.03
- BI (binding intensity) (InaDl PDZ5): 0.02
- BI (binding intensity) (PSCDBP PDZ1): 0.01
- BI (binding intensity) (AHNAK1 PDZ1): 0.00
- BI (binding intensity) (RADIL PDZ1): 0.00
- BI (binding intensity) (PDZD7 PDZ1): 0.00
- BI (binding intensity) (InaDl PDZ7): -0.01
- BI (binding intensity) (MPDZ PDZ4): -0.01
- BI (binding intensity) (LNX2 PDZ2): -0.01
- BI (binding intensity) (PARD3B PDZ3): -0.01
- BI (binding intensity) (RIMS2 PDZ1): -0.02
- BI (binding intensity) (SCRIB PDZ4): -0.02
- BI (binding intensity) (PTPN13 PDZ3): -0.02
- BI (binding intensity) (PTPN13 PDZ1): -0.02
- BI (binding intensity) (NHERF4 PDZ3): -0.02
- BI (binding intensity) (FRMPD2 PDZ1): -0.02
- BI (binding intensity) (PDZD7 PDZ2): -0.03
- BI (binding intensity) (MPP5 PDZ1): -0.03
- BI (binding intensity) (MPDZ PDZ13): -0.03
- BI (binding intensity) (PDLIM4 PDZ1): -0.04
- BI (binding intensity) (MAGI1 PDZ3): -0.04
- BI (binding intensity) (MPP3 PDZ1): -0.04
- BI (binding intensity) (IL16 PDZ3): -0.04
- BI (binding intensity) (GRIP2 PDZ7): -0.04
- BI (binding intensity) (AHNAK2 PDZ1): -0.04
- BI (binding intensity) (LIN7A PDZ1): -0.04
- BI (binding intensity) (PREX1 PDZ2): -0.05
- BI (binding intensity) (MPDZ PDZ11): -0.05
- BI (binding intensity) (PARD6G PDZ1): -0.05
- BI (binding intensity) (PDZD7 PDZ3): -0.06
- BI (binding intensity) (SYNJ2BP PDZ1): -0.06
- BI (binding intensity) (InaDl PDZ3): -0.06
- BI (binding intensity) (RAPGEF6 PDZ1): -0.06
- BI (binding intensity) (MAGIX PDZ1): -0.06
- BI (binding intensity) (LNX1 PDZ1): -0.07
- BI (binding intensity) (MPDZ PDZ1 0): -0.07
- BI (binding intensity) (GRIP1 PDZ2): -0.07
- BI (binding intensity) (GRIP1 PDZ5): -0.07
- BI (binding intensity) (MPP1 PDZ1): -0.07
- BI (binding intensity) (DLG1 PDZ3): -0.07
- BI (binding intensity) (TIAM1 PDZ1): -0.08
- BI (binding intensity) (SDCBP PDZ2): -0.09
- BI (binding intensity) (IL16 PDZ2): -0.09
- BI (binding intensity) (APBA3 PDZ2): -0.10
- BI (binding intensity) (NHERF4 PDZ4): -0.11
- BI (binding intensity) (TJP2 PDZ2): -0.12
